Screening data from PubChem.
Cneo AK release = causes C. neoformans cell lysis. adenylate kinase release luminescence, 4 h; normalised: neutral wells 0, clomiphene wells 100. actives 0.2% (n = 360,000). lysis activity, % at 15 µM. AID 651654;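 active means mean lysis activity across replicates of at least 80%, whatever share of replicates individually reach that level; inactive means mean lysis activity below 80%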
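Signal: Adenylate kinase release luminescence | Assay system: Log-phase Cryptococcus neoformans yeast cells | Input: Cells at 5 × 10^6 per mL | Buffer or medium: Fresh YPD growth medium | Compound: Single dose | Schedule: Static 4 h at 37 °C with compound, 1 h detection | Controls: Clomiphene | Read-out: Luminescence rise reflecting yeast cell lysis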
C2C12 statin = suppression of simvastatin myotoxicity; C2C12 myotubes + simvastatin, ATP luminescence, 48 h; scaled: DMSO 0, geranylgeraniol control 100; rescue of ATP level, % at 7.49 µM; actives 0.78% (n = 330,000); AID 602340;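 active means mean ATP rescue above about 67%, or every replicate alone reaching that limit, limit read from the data, passing the limit was not always enough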;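 further: myotubes were challenged with 10 µM simvastatin during compound exposure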
miR122 inh = inhibitors of miR-122 in Huh7 cells. Huh7 miR-122 Renilla luciferase sensor, 48 h; neutral wells = 0, positive control = 100. activation (reporter increase), % at 12.5 µM. actives 0.3% (n = 340,000). AID 602342;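 active means mean replicate activation score at least 90 and every replicate individually at or above 90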;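 further: higher luciferase means less miR-122 activity so hits act as miR-122 inhibitors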
N-glyco inh = blocks N-linked glycosylation in D54 reporter cells; D54 ERlucT glycosylation luciferase reporter, 24 h; percent of 100 nM tunicamycin response; reporter increase, % at 12.5 µM; actives 0.23% (n = 360,000);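 active means mean luciferase reporter signal, scaled so untreated is 0 and the glycosylation-blocking control 100, at or above a set limit in every replicate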;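 further: luciferase carries N-glycosylation sites so blocking glycosylation raises the light; 0% = median of neutral control wells and 100% = median of 100 nM tunicamycin wells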
Yeast UUG start = alters start codon recognition fidelity in yeast. S. cerevisiae UUG-firefly luciferase reporter, luminescence/redox ratio. AID 602363. activity score, % at 18.7 µM. hit rate 0.13% among 350,000;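 active = replicate mean at a twofold rise or more, about +100% in these data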;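 note: firefly luciferase made from a UUG start codon reports start codon fidelity; reporter light over untreated wells divided by growth signal over untreated wells; some hits fall short of that in this replicate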
* marks the source's active call; other numbers are inactive results; / = no result; [ ] = remark or other dose. An excerpt weighted towards active compounds, which were near 1.2% of everything screened.

| entry | SMILES | Cneo AK release | C2C12 statin | miR122 inh | N-glyco inh | Yeast UUG start |
| --- | --- | --- | --- | --- | --- | --- |
| 1 | COc1ccccc1NC(=O)c1ccc2nc(-c3ccccc3)c(-c3ccccc3)nc2c1 | -0.3 | 83.8* | -8.7 | 2.8 | -11.2 |
| 2 | COc1cc(NC(=O)c2ccccc2)c(OC)cc1Cl | 3.8 | 130.3* | 2.1 | 4.0 | -15.1 |
| 3 | COc1ccc(NC(=O)c2ccc3nc(-c4ccccc4)c(-c4ccccc4)nc3c2)c(OC)c1 | / | / | / | 2.1 | / |
| 4 | O=C(Nc1ccc2c(c1)[C@@H]1C[C@H](CC(=O)N3CCCCC3)O[C@H](CO)[C@@H]1O2)c1ccc2c(c1)OCO2 | -2.6 | -0.6 | 7.9[16.7 µM] | / | 9.7 |
| 5 | COc1ccc(OC)c(S(=O)(=O)Nc2ccc3oc(C)c(C(C)=O)c3c2)c1 | 6.3 | 3.9 | 80.3 | -0.8 | -15.6 |
| 6 | COc1ccc(NC(=O)c2ccc(F)cc2)cc1S(=O)(=O)Nc1cc(C)ccc1Br | / | / | / | -0.6 | / |
| 7 | COc1ccc(OC)c(S(=O)(=O)Nc2ccc(C(C)=O)cc2)c1 | 0.6 | -4.6 | 99.6* | 1.6 | -2.3 |
| 8 | COc1ccc(NS(=O)(=O)c2cc(NC(=O)c3ccc(F)cc3)ccc2OC)cc1 | 0.6 | -4.8 | 108.4* | -5.0 | -0.8 |
| 9 | CCOC(=O)c1ccc(NS(=O)(=O)c2cc(C)ccc2OC)cc1 | -0.6 | -4.6 | 373.0* | -0.2 | -17.5 |
| 10 | COC(=O)c1c(C)oc2ccc(NS(=O)(=O)c3cc(OC)ccc3OC)cc12 | -1.9 | 121.5* | 3.0 | -0.9 | 64.4 |
| 11 | CCOC(=O)c1ccc(NS(=O)(=O)c2cc(-c3nnnn3CC)ccc2OC)cc1 | -2.9 | -0.2 | 4.4 | 0.1 | -3.5 |
| 12 | O=C(Nc1ccccc1)N1CCCCN2[C@@H](CO)[C@H](c3ccc(Br)cc3)[C@@H]2C1 | -0.3 | 12.1 | -3.6[16.7 µM] | / | 8.2 |

Next compounds.
| entry | SMILES | Cneo AK release | C2C12 statin | miR122 inh | N-glyco inh | Yeast UUG start |
| --- | --- | --- | --- | --- | --- | --- |
| 13 | CC(=O)NC[C@@H]1[C@H](c2ccc(C3=CCCCC3)cc2)[C@H](CO)N1C(=O)NC(C)C | -0.6 | 5.3 | -14.3[16.7 µM] | / | 9.1 |
| 14 | O=C(NCCOC(=O)c1ccncc1)c1ccccc1 | 1.9 | 86.6* | 12.2 | -1.4 | 5.1 |
| 15 | O=C(NCCOC(=O)c1ccccc1)c1ccc([N+](=O)[O-])cc1 | -0.3 | -0.7 | -3.3 | -0.9 | -6.5 |
| 16 | Cc1noc(C)c1S(=O)(=O)Nc1ccc2c(c1)CC(=O)N([C@@H](C)CO)C[C@H](C)[C@H](CN(C)S(=O)(=O)c1cn(C)cn1)O2 | -3.2 | 3.3 | -3.0[16.7 µM] | / | 9.7 |
| 17 | O=C1N(Cc2ccccc2F)c2ccccc2C12OCCCO2 | -0.6 | 120.1* | -6.4 | -2.1 | -11.7 |
| 18 | O=C1N(Cc2ccc(F)cc2Cl)c2ccccc2C12OCCCO2 | 4.1 | 8.5 | 2.9 | 0.2 | 3.3 |
| 19 | CCN(CC)C(=O)C(=O)N/N=C/c1ccc(Br)cc1 | -1.1 | 88.9* | -2.9 | 3.5 | -5.4 |
| 20 | CC(C)(C)NC(=O)C(=O)N/N=C/c1ccc(Br)cc1 | / | / | -4.7 | -0.1 | / |
| 21 | CCC(=O)Nc1c(C#N)c2nc3ccccc3nc2n1-c1ccccc1C | 1.3 | 191.8* | -1.8 | 0.0 | -8.3 |
| 22 | CCC(=O)Nc1c(C#N)c2nc3ccccc3nc2n1C1CCCCC1 | / | / | / | -1.4 | / |
| 23 | C[C@@H]1CN([C@@H](C)CO)C(=O)c2cc(NC(=O)Cn3cnnn3)ccc2O[C@H]1CN(C)C | -4.0 | -5.3 | -0.4[16.7 µM] | / | 3.7 |
| 24 | O=C1N=C(N2CCc3ccccc3C2)S/C1=C\c1cccc(O)c1 | -1.6 | / | 108.9* | 2.1 | -10.7 |

Laid out differently: results already given.
Every second line gives: Cneo AK release, C2C12 statin, miR122 inh, N-glyco inh, Yeast UUG start
9	CCOC(=O)c1ccc(NS(=O)(=O)c2cc(C)ccc2OC)cc1
 : -0.6, -4.6, 373.0*, -0.2, -17.5
10	COC(=O)c1c(C)oc2ccc(NS(=O)(=O)c3cc(OC)ccc3OC)cc12
 : -1.9, 121.5*, 3.0, -0.9, 64.4

Record cards, as listed above. Order of values: Cneo AK release, C2C12 statin, miR122 inh, N-glyco inh, Yeast UUG start
COc1ccc(NC(=O)c2ccc3nc(-c4ccccc4)c(-c4ccccc4)nc3c2)c(OC)c1 is listed with /, /, /, 2.1, /
O=C(NCCOC(=O)c1ccncc1)c1ccccc1 is listed with 1.9, 86.6*, 12.2, -1.4, 5.1
COc1ccc(OC)c(S(=O)(=O)Nc2ccc3oc(C)c(C(C)=O)c3c2)c1 is listed with 6.3, 3.9, 80.3, -0.8, -15.6

The list continues.
| entry | SMILES | Cneo AK release | C2C12 statin | miR122 inh | N-glyco inh | Yeast UUG start |
| --- | --- | --- | --- | --- | --- | --- |
| 25 | COc1ccc(/C=C2\SC(N3CCc4ccccc4C3)=NC2=O)cc1 | -1.8 | -1.5 | 10.4 | 1.0 | -14.5 |
| 26 | COCCOC(=O)N1CCCCC1c1cc(C(=O)NCc2ccc(Cl)c(Cl)c2)no1 (stereo not drawn) | 0.9 | 1.3 | -1.2 | -1.4 | -2.6 |
| 27 | CCOC(=O)N1CCN(c2ccccc2OC)CC1 | / | / | / | 1.1 | / |
| 28 | CCOC(=O)N1CCN(c2ccccc2O)CC1 | -0.8 | 124.4* | -2.5 | -3.0 | 15.4 |
| 29 | O=[N+]([O-])c1cccc(-c2c(-c3ccccc3)ncc3ccc(F)cc23)c1 | 0.6 | 121.1* | -1.1 | -0.4 | -6.8 |
| 30 | O=C(C[C@@H]1CC[C@@H]2[C@H](COC[C@H](O)CN2S(=O)(=O)c2cccc(Cl)c2)O1)Nc1ccccc1 | -5.2 | 15.2 | -0.1[16.7 µM] | / | 9.7 |
| 31 | CNC(=O)C[C@@H]1CC[C@@H]2[C@H](COC[C@H](O)CN2S(=O)(=O)c2cccc(Cl)c2)O1 | 100.3* | 5.7 | 10.5[16.7 µM] | / | / |
| 32 | Cn1cnc(S(=O)(=O)N2C[C@H](O)COC[C@H]3O[C@@H](CC(=O)NC4CCCC4)CC[C@@H]32)c1 | -2.7 | 9.3 | 87.4[16.7 µM] | / | / |
| 33 | Cn1cnc(S(=O)(=O)N2C[C@@H](O)COC[C@H]3O[C@@H](CC(=O)NC4CCCC4)CC[C@@H]32)c1 | 51.1 | -4.0 | 126.8*[16.7 µM] | / | / |
| 34 | Cc1ccc(S(=O)(=O)N2C[C@H](O)COC[C@H]3O[C@@H](CC(=O)NCc4ccc5c(c4)OCO5)CC[C@@H]32)cc1 | 1.3 | 11.7 | -3.0[16.7 µM] | / | 5.3 |
| 35 | Cc1ccc(S(=O)(=O)N2C[C@@H](O)COC[C@H]3O[C@H](CC(=O)NCc4ccc5c(c4)OCO5)CC[C@@H]32)cc1 | 104.2* | -4.0 | 37.2[16.7 µM] | / | 47.5 |
| 36 | C[C@@H]1CN([C@@H](C)CO)C(=O)Cc2cc(NS(=O)(=O)c3ccc(Cl)cc3)ccc2O[C@@H]1CN(C)S(C)(=O)=O | 6.6 | -16.1 | -6.3[16.7 µM] | / | 1.5 |

#37 Cc1cccc(NC(=O)C2Cc3ccccc3O/C2=N\O)c1 (stereo not drawn)
#38 Cc1cc(C)n(-c2nc3ccccc3c(=O)n2OCCOc2ccccc2)n1
#39 Cc1cc(C(F)(F)F)c2sc(N)nc2n1
#40 Nc1nc2nc(-c3ccccc3)cc(C(F)(F)F)c2s1
#41 COc1ccc(OC)c(-n2c(=S)[nH]c3c(sc(=S)n3-c3ccccc3)c2=O)c1
#42 C[C@@H]1CN([C@H](C)CO)C(=O)c2cc(C#CC3(O)CCCC3)cnc2O[C@H]1CN(C)C(=O)CN(C)C

screen / no.	37	38	39	40	41	42
Cneo AK release	0.3	1.9	-1.6	-1.0	/	-5.2
C2C12 statin	-1.8	99.5*	84.8*	24.2	/	/
miR122 inh	0.8	4.6	-3.1	4.6	/	-7.0[16.7 µM]
N-glyco inh	-0.4	-0.7	1.5	2.0	-0.8	/
Yeast UUG start	-7.2	0.1	-24.8	-20.3	/	17.6

#43 O=C(Cc1c(F)c(F)c(F)c(F)c1F)OC12CC3CC(C1)C(=O)C(C3)C2
#44 CC(=O)OC12CC3CC(C1)C(=NO)C(C3)C2
#45 COc1ccc(N(Cc2cc(=O)[nH]c3ccccc23)C(=O)CCl)cc1
#46 CS(=O)(=O)c1ccccc1C(=O)Nc1ccc(-c2nc3ccccc3[nH]2)cc1
#47 CS(=O)(=O)c1cccc(C(=O)Nc2ccc(-c3nc4ccccc4[nH]3)cc2)c1
#48 CN(C)CCCNC(=O)[C@H]1[C@H](CO)[C@H]2Cn3c(ccc(-c4ccccc4)c3=O)[C@H]2N1C
#49 COc1ccc(NC(=O)Nc2cccc3c2O[C@H](CN(C)C(=O)Nc2ccc(C(F)(F)F)cc2)[C@@H](C)CN([C@@H](C)CO)C3=O)cc1
#50 C=CCSc1nc(C)c2cc(C)cc(C)c2n1
#51 C=CCSc1nc(=O)n2ccc(C)cc2n1

screen / no.	43	44	45	46	47	48	49	50	51
Cneo AK release	1.6	6.6	2.8	-3.7	-0.1	-1.5	36.4	-3.3	-0.4
C2C12 statin	-9.7	93.8*	-32.7	-12.2	-70.7	-6.6	-62.8	132.6*	-7.1
miR122 inh	3.9	-8.6	-12.3	5.1	24.4	-2.4[16.7 µM]	69.5[16.7 µM]	-3.6	-24.7
N-glyco inh	2.8	1.7	-1.0	-0.9	46.0*	/	/	-2.1	1.6
Yeast UUG start	-19.0	-10.7	-8.6	-6.9	-12.2	/	47.7	0.6	-10.3
